Experimental data reported in US9303033B2, “Pyrazolopyrimidines and related heterocycles as CK2 inhibitors” (SENHWA BIOSCIENCES, INC., priority 2009, dated 2016).

By UniProt entry, the sequences of proteins in these tests, tags left out. Where a name states a change or a piece, a line headed by the entry shows the natural chain unless it says otherwise.
UniProt Q9P1W9: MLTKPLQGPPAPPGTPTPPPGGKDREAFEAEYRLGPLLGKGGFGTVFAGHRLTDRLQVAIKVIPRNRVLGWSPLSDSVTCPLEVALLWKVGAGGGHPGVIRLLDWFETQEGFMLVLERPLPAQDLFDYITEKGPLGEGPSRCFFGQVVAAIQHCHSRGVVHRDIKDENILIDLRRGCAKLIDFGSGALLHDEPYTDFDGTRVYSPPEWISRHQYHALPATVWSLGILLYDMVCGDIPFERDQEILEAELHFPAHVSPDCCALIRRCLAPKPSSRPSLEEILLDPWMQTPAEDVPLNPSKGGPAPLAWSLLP
UniProt P11309, whole entry: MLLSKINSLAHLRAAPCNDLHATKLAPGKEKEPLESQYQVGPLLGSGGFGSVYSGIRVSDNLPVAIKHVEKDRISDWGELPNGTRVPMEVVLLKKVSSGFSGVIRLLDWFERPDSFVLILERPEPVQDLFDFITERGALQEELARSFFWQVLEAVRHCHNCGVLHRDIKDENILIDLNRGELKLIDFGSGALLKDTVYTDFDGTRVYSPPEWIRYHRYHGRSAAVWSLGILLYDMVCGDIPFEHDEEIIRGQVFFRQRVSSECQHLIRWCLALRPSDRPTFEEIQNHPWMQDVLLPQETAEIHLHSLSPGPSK

Legend:
[1] = target: recombinant human PIM2 (Homo sapiens (Human), UniProt Q9P1W9); assay: PIM-2 assay (33P-ATP filter binding); format: biochemical; settings: PIM2: IC50 (5 μM ATP)
[2] = target: recombinant PIM-1 (Homo sapiens (Human), UniProt P11309); assay: PIM-1 assay (33P-ATP filter binding); format: biochemical; settings: read-out: PIM1: IC50 (30 μM ATP)
Experimental: The following procedure was used to assay the PIM-1 kinase activity of compounds of the invention. Other methods for assaying PIM-1 and other PIM kinases, as well as methods to assay for activity against the various kinases for the kinase panel mentioned in FIGS. 1 and 2, are known in the art.
In a final reaction volume of 50 ul, recombinant PIM-1 (1 ng) was incubated with 12 mM MOPS pH 7.0, 0.4 mM EDTA, glycerol 1%, brij 35 0.002%, 2-mercaptoethanol 0.02%, BSA 0.2 mg/ml, 100 uM […] (SEQ ID NO.: 5), 10 mM MgAcetate, 15 uM ATP, [γ-^33P-ATP] (specific activity approx. 500 cpm/pmol), DMSO 4% and test inhibitor compound at the required concentration. The reaction was initiated by the addition of the Magnesium ATP mixture. After 40 min incubation at 23° C., the reactions were quenched by the addition of 100 ul 0.75% Phosphoric acid, and the labeled peptide collected by filtration through a phosphocellulose filter plate. The plate was washed 4 times with 0.075% phosphoric acid (100 ul per well) and then, after the addition of scintillation fluid (20 ul per well), the counts were measured by a scintillation counter.

IC50 [1] [nM] | IC50 [2] [nM] | Structure (SMILES)
701 |  | O=C1NC(=O)/C(=C/c2cnn3c(NC4CCNC4)cc(Nc4cccc(Cl)c4)nc23)N1 (centres unmarked) [Example P6]
 | 1250 | CCN(CC)CCNc1cc(NC2CC2)n2ncc(/C=C3\SC(=O)NC3=O)c2n1 [Example O3]
